Cyclic peptide permeability, from CycPeptMPDB

Caco-2 values are permeabilities across monolayers of Caco-2 human intestinal cells.
Values are log10 P with P in cm/s, so -5 is more permeable than -7.

For CC(C)C[C@@H]1NC(=O)[C@@H](CC(C)C)NC(=O)[C@H](CC(C)C)NC(=O)[C@@H](CC(C)C)NC(=O)[C@H]2CCCN2C(=O)[C@H](Cc2ccc(O)cc2)NC1=O the data give Caco-2 -6.84 (log10 cm/s).
For CC(C)C[C@@H]1NC(=O)[C@@H](CC(C)C)NC(=O)[C@@H](CC(C)C)NC(=O)[C@H]2CCCN2C(=O)[C@H](Cc2ccc(O)cc2)NC(=O)[C@@H](CC(C)C)NC1=O the data give Caco-2 -5.10 (log10 cm/s).
For CC(C)C[C@@H]1NC(=O)[C@H](CC(C)C)NC(=O)[C@@H](CC(C)C)NC(=O)[C@@H](CC(C)C)NC(=O)[C@H]2CCCN2C(=O)[C@H](Cc2ccc(O)cc2)NC1=O the data give Caco-2 -6.59 (log10 cm/s).
For CC(C)C[C@@H]1NC(=O)[C@@H](CC(C)C)NC(=O)[C@@H](CC(C)C)NC(=O)[C@@H](CC(C)C)NC(=O)[C@H]2CCCN2C(=O)[C@H](Cc2ccc(O)cc2)NC1=O the data give Caco-2 -6.64 (log10 cm/s).
For CC(C)C[C@@H]1NC(=O)[C@H](CC(C)C)NC(=O)[C@@H](CC(C)C)NC(=O)[C@H]2CCCN2C(=O)[C@H](Cc2ccc(O)cc2)NC(=O)[C@H](CC(C)C)NC1=O the data give Caco-2 -6.37 (log10 cm/s).
For CC(C)C[C@H]1NC(=O)[C@H]2CCCN2C(=O)[C@H](Cc2ccc(O)cc2)NC(=O)[C@@H](CC(C)C)NC(=O)[C@@H](CC(C)C)NC(=O)[C@@H](CC(C)C)NC1=O the data give Caco-2 -7.35 (log10 cm/s).
For CC(C)C[C@@H]1NC(=O)[C@@H](CC(C)C)NC(=O)[C@H]2CCCN2C(=O)[C@H](Cc2ccc(O)cc2)NC(=O)[C@@H](CC(C)C)NC(=O)[C@@H](CC(C)C)NC1=O the data give Caco-2 -6.32 (log10 cm/s).
For CC(C)C[C@@H]1NC(=O)[C@H](CC(C)C)NC(=O)[C@@H](CC(C)C)NC(=O)[C@H]2CCCN2C(=O)[C@H](Cc2ccc(O)cc2)NC(=O)[C@@H](CC(C)C)NC1=O the data give Caco-2 -5.44 (log10 cm/s).

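Lipid, pH, incubation time, direction and concentration are not recorded in the data file. The list need not hold all peptides of the study. Entries at the database's floor value (log10 P of -10) are not listed.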

Source: CycPeptMPDB (Li et al. 2023), which took these values from Hewitt et al. 2015, doi:10.1021/ja508766b.